Screening data from PubChem.
TrxR1 inh – blocks rat thioredoxin reductase 1 | O89049 | recombinant rTrxR1, NADPH fluorescence consumption, selenite substrate | Potency, µM (series often up to 114 µM), inactives show at the highest dose activity change, negative = inhibition, usual class: inhibitors | 1% of 390,000 active | AID 588453; note: potency is the fitted concentration of half-maximal effect; % is set by controls: 0 for no effect and ±100 for the full control effect; nearly all actives have a fitted effect of over 65% in size
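Rat TrxR1 (90 nM in the dispensed reagent) was pre-reduced with 400 uM NADPH for 5 min at room temperature, then incubated with compound for 15 min. After 400 uM selenite was added, NADPH fluorescence (Ex 340/Em 450 nm) was followed for 8 min.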
Apoferritin bind – binds horse apoferritin like a general anesthetic; P02791; apoferritin/1-aminoanthracene competitive binding, fluorescence; Potency, µM (series often up to 77.5 µM), inactives show at the highest dose activity change, negative = displacement, usual class: inhibitors; 0.074% of 350,000 active; AID 485281; note: potency is the fitted concentration of half-maximal effect; % is set by controls: 0 for no effect and ±100 for the full control effect; nearly all actives have a fitted effect of over 20% in size
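Horse-spleen apoferritin (10 uM) in 50% saturated 1-aminoanthracene in PBS was incubated 10 min at room temperature with compound. Fluorescence (ex 380, em 535 nm) was normalized to free and bound 1-AMA, with concentration-response fitted by a four-parameter Hill equation.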
miR-21 FLuc – miR-21 reporter, rising signal. HeLa miR-21 FLuc reporter, luciferase, 48 h. Potency, µM (titrated, usually from 38.3 µM), without a hit: at the top dose reporter change, positive = more light. 340,000 tested, under 10 active. AID 2288; active = well fitted rising curve with a large enough effect; inconclusive = small, poorly fitted or top-dose-only effect; inactive = no such curve, though single readings can be large or run the other way;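 also: % of control where 0% means no effect; miR-21 action dims this reporter so a rising signal means less miR-21 action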
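Using DMEM plus 10% FBS, HeLa miR-21-FLuc cells are incubated with test compounds (final up to about 40uM) for 48 hours; firefly luciferase signal is then imaged following reagent-mediated lysis.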
ClpP mod – qHTS Assay for Activators of ClpP; ATP-dependent Clp protease proteolytic subunit (Bacillus subtilis (strain 168)), P80244; purified B. subtilis ClpP, FRET peptide cleavage, 20 min; Potency, µM (titrated, usually from 57.5 µM), for the others: at the highest dose activity change, negative = active; 1.9% of 340,000 active; AID 651965, 2013; active = well fitted falling curve with a large enough effect; inconclusive = small, poorly fitted or top-dose-only effect; inactive = no such curve, though single readings can be large or run the other way; note: potency is the fitted concentration of half-maximal effect; the source files actives as falling curves though it sought activators and does not explain the sign; nearly all actives have a fitted effect of over 65% in size
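Buffer: 100 mM Tris/HCl pH8, 100 mM KCl, 0.05% low protease BSA, 2.5% glycerol, 0.01% Tween-20. ClpP 10 microg/mL final; 20 min RT; delta FRET normalized to ADEP and DMSO controls.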
TrxR1 substrate – is turned over as a substrate by rat TrxR1 | O89049 | purified TrxR1 substrate turnover, NADPH consumption readout | Potency, µM (series often up to 114 µM), for the others: at the highest dose activity change, negative = substrate turnover | 0.01% of 390,000 active; note: potency is the fitted concentration of half-maximal effect; % is set by controls: 0 for no effect and ±100 for the full control effect; nearly all actives have a fitted effect of over 50% in size
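Rat TrxR1, dispensed at 90 nM, was prereduced with 400 uM NADPH (final) for 5 min at ~22 deg C, then incubated with compound 15 min before 400 uM selenite. A first-read NADPH fluorescence drop versus no-compound background flagged substrates.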
Numbers without * were called inactive; ? = inconclusive; . = not tested or not shown; [ ] = remark or other dose. Only some compounds are listed: those with a hit (about 2.5% of all), similar ones and a draw of the others. Unless noted, calls come from the whole dose curve; as a rule, active = well fitted curve in the direction sought with a large enough effect; inconclusive = small, poorly fitted or top-dose-only effect, or another doubt; inactive = no such curve, though single readings can be large; an effect the other way counts as inactive or inconclusive.

Sequences of proteins named here, by UniProt entry; tags and fusion partners are left off.
ATP-dependent Clp protease proteolytic subunit (Bacillus subtilis (strain 168)), P80244, UniProt P80244, whole entry, looked up: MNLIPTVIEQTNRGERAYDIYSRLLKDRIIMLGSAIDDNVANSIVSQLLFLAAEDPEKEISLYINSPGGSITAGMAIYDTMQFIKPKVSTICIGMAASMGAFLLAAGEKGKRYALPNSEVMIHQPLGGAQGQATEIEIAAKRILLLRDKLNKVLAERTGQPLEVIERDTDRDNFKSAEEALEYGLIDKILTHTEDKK

structure	TrxR1 inh	Apoferritin bind	miR-21 FLuc	ClpP mod	TrxR1 substrate
CN1CCN(S(=O)(=O)c2ccc(Sc3nnnn3-c3ccccc3)c([N+](=O)[O-])c2)CC1	?	-14%	-2%	1%	3%
C/C(=N\NC(=O)COc1ccccc1)c1cccs1	-12%	-18%	-78%	25µM*	-6%
CN1CCc2cc3c(c4c2C1CC41CCC(=NO)CC1)OCO3 (configuration not stated)	-13%	8%	-5%	32µM*	37%
CN1CCc2cc3c(c4c2[C@H]1[C@H](O)c1ccccc1-4)OCO3	-15%	7%	13%	-14%	5%
CCNC(=O)CN1C(=O)NC2(CCOc3ccccc32)C1=O (configuration not stated)	4%	-5%	-2%	.	-4%
O=C(CN1C(=O)NC2(CCOc3ccccc32)C1=O)NCc1ccccc1 (configuration not stated)	23%[11.4 µM]	.	.	11µM*	11%[57.1 µM]
CCOC(=O)C1=CN(C)C=C(C(=O)OCC)C1c1ccsc1	0%	847%	-1%	8.9µM*	560%
CCOc1ccccc1NC(=O)c1ccc(C(=O)Nc2ccccc2OCC)cc1	-16%	-3%	-7%	-1%	-1%
CCOc1ccccc1NC(=O)/C=C/C(N)=O	25µM*	-13%	21%	-1%	10%
CCOc1ccccc1NC(=O)CC1Nc2ccccc2NC1=O (configuration not stated)	-56%	?	12%	25µM*	-10%
CC(CNC(=O)c1cnn(-c2ccc(F)cc2)c1-n1cccc1)c1ccccc1 (configuration not stated)	-4%	86%	27%	-3%	-9%
COc1ccc(-c2onc(C)c2C)cc1S(=O)(=O)NCc1ccc(C)o1	6%[57.1 µM]	-10%	21%	-2%	0%[57.1 µM]
Cc1nc(NCCc2ccc(O)cc2)c2nnn(Cc3ccccc3)c2n1	-18%	16µM*	8%	.	-8%
CCN(CCCNC(=O)c1cc(Nc2ccccc2OC)nc2ccccc12)c1cccc(C)c1	11%	362%	6%	?	6%
CCn1ncc(C2C(C(=O)Nc3ccc(C)cn3)=C(C)NC3=C2C(=O)CCC3)c1C (configuration not stated)	-12%[57.1 µM]	79%	-3%	2%	37%[57.1 µM]
CC1=C(C(=O)Nc2ccc(C)cn2)C(c2cnn(C)c2)C2=C(CCCC2=O)N1 (configuration not stated)	5%	79%	-10%	6.3µM*	46%
O=c1c(O)c(-c2ccc(O)cc2O)oc2cc(O)cc(O)c12	7.1µM*	8%	-10%	-1%	9%[57.1 µM]
O=c1c(O)c(-c2ccccc2O)oc2cc(O)cc(O)c12	.	-7%	.	.	.
CCCc1nc2c(sc3nc4c(cc32)COC(C)(C)C4)c(=O)n1Cc1ccco1	11µM*	-8%	-1%	-3%	6%
CC(=O)N1CCC2(CC1)C/C(=N\NC(=S)Nc1ccccc1F)c1cc(O)ccc1O2	-8%	4%	-15%	25µM*	6%

An excerpt of these results, with each value named:
COc1ccc(-c2onc(C)c2C)cc1S(=O)(=O)NCc1ccc(C)o1
  TrxR1 inh: 6%[57.1 µM]; Apoferritin bind: -10%; miR-21 FLuc: 21%; ClpP mod: -2%; TrxR1 substrate: 0%[57.1 µM]
Cc1nc(NCCc2ccc(O)cc2)c2nnn(Cc3ccccc3)c2n1
  TrxR1 inh: -18%; Apoferritin bind: 16µM*; miR-21 FLuc: 8%; ClpP mod: .; TrxR1 substrate: -8%
CCN(CCCNC(=O)c1cc(Nc2ccccc2OC)nc2ccccc12)c1cccc(C)c1
  TrxR1 inh: 11%; Apoferritin bind: 362%; miR-21 FLuc: 6%; ClpP mod: ?; TrxR1 substrate: 6%

(continued)
structure	TrxR1 inh	Apoferritin bind	miR-21 FLuc	ClpP mod	TrxR1 substrate
COc1ccccc1NC(=S)N/N=C1\CC(C)(C)Oc2ccc(O)cc21	0%	0%	26%	25µM*	6%
COc1ccccc1CNC(=O)Cn1c(-c2ccc(F)cc2)cc(C(C)=O)c1C	27%[57.1 µM]	-6%	2%	0%	3%[57.1 µM]
CS(=O)(=O)c1ccc(C(=O)OCc2nnc(-c3ccc(Cl)cc3)o2)cc1[N+](=O)[O-]	1.8µM*	-18%	8%	-1%	8%[57.1 µM]
COc1ccccc1-c1nnc(-c2ccc(N3CCOCC3)cc2)o1	-30%	4%	-84%	18µM*	75%
C[N+]1(CC(=O)c2ccc(I)cc2)CCCc2ccccc21 (configuration not stated)	2%	.	.	-2%	-4%
COc1ccc(-n2c(=O)c3c4c(sc3n(Cc3ccc(F)cc3)c2=O)CCCC4)c(OC)c1	25%	-6%	0%	-1%	3%
COCc1cc(O)c(O)c(O)c1-c1c(COC)cc(O)c(O)c1O	14µM*	6%	.	-2%	-9%
CCc1oc(C(=O)O)cc1COC	2%[57.1 µM]	-6%	2%	-3%	-1%[57.1 µM]
O=C(CCc1ccccc1)NCc1nc2cccnc2n1Cc1ccc(F)cc1	11%[57.1 µM]	-8%	3%	-2%	-4%[57.1 µM]
